Chains of the proteins cited; added tags and fusions are not shown. Residues count along the entry.
UniProt C7FF04, 1-392: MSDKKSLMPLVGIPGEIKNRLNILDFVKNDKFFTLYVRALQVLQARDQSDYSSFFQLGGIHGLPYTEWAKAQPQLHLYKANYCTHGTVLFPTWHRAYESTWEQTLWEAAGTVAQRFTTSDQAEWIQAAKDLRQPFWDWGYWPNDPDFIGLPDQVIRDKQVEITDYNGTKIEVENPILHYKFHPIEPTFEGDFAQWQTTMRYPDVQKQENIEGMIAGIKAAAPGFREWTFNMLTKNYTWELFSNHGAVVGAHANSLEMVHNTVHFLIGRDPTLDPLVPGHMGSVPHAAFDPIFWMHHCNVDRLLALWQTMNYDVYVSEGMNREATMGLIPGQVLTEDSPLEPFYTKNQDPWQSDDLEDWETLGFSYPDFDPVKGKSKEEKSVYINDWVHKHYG

In paper PMC5796027, “Thiopurine Drugs Repositioned as Tyrosinase Inhibitors” (International Journal of Molecular Sciences, 2017):

How the values were obtained:
mushroom tyrosinase = mushroom tyrosinase (Agaricus bisporus, UniProt C7FF04); experiment: Mushroom tyrosinase enzyme inhibition assay (dopachrome absorbance at 475 nm); assay type: biochemical; settings: −1.37 × (Log10Ki)/HA, HA = number of heavy atoms
Description: Enzyme activity and kinetics experiments with inhibitors—All of the reagents used in this study were purchased from ChemBridge (San Diego, CA, USA), Sigma-Aldrich (St. Louis, MO, USA), or Tokyo Chemical Industry (Tokyo, Japan). The reaction solution for the enzyme assay was prepared with 200 nM mushroom tyrosinase and inhibitors in phosphate-buffered saline (PBS), containing 5% dimethyl sulphoxide and 0.01% (w/v) Triton X-100. After incubating the mixture at 30 °C for 10 min, 500 μM L-tyrosine was added as the substrate. […] The IC50 was evaluated by analysing different concentrations of each inhibitor. The inhibitory constants (Ki) were converted from the IC50 values using the Km obtained from kinetics experiments and substrate concentration based on the Cheng–Prusoff equation [60]. A series of substrates at concentrations of 0.25, 0.33, 0.4, 0.5, 0.67, and 1 mM were used to obtain the respective velocities (V) for enzyme inhibitory kinetics. The concentrations of each inhibitor were varied and comprised the range that included the IC50 value. […]

[1] = system: B16F10 murine melanoma cells; settings: up to 50 μM, 48 h
human hepatocytes = settings: up to several tens of μM ref 43; cited from earlier work

Nc1nc2nc[nH]c2c(=S)[nH]1 [Thioguanine, thioguanine]
LE, ligand efficiency (mushroom tyrosinase): 0.49
cytotoxicity (MTT reduction) [1]: without apparent cytotoxicity
cytotoxicity in human hepatocytes (human hepatocytes): less cytotoxic up to several tens of μM
